B1: RAC-alpha serine/threonine-protein kinase (Homo sapiens), P31749 (parent)
chain: MSDVAIVKEGWLHKRGEYIKTWRPRYFLLKNDGTFIGYKERPQDVDQREAPLNNFSVAQCQLMKTERPRPNTFIIRCLQWTTVIERTFHVETPEEREEWTTAIQTVADGLKKQEEEEMDFRSGSPSDNSGAEEMEVSLAKPKHRVTMNEFEYLKLLGKGTFGKVILVKEKATGRYYAMKILKKEVIVAKDEVAHTLTENRVLQNSRHPFLTALKYSFQTHDRLCFVMEYANGGELFFHLSRERVFSEDRARFYGAEIVSALDYLHSEKNVVYRDLKLENLMLDKDGHIKITDFGLCKEGIKDGATMKTFCGTPEYLAPEVLEDNDYGRAVDWWGLGVVMYEMMCGRLPFYNQDHEKLFELILMEEIRFPRTLGPEAKSLLSGLLKKDPKQRLGGGSEDAKEIMQHRFFAGIVWQHVYEKKLSPPFKPQVTSETDTRYFDEEFTAQMITITPPDQDDSMECVDSERRPHFPQFSYSASGTA
partner: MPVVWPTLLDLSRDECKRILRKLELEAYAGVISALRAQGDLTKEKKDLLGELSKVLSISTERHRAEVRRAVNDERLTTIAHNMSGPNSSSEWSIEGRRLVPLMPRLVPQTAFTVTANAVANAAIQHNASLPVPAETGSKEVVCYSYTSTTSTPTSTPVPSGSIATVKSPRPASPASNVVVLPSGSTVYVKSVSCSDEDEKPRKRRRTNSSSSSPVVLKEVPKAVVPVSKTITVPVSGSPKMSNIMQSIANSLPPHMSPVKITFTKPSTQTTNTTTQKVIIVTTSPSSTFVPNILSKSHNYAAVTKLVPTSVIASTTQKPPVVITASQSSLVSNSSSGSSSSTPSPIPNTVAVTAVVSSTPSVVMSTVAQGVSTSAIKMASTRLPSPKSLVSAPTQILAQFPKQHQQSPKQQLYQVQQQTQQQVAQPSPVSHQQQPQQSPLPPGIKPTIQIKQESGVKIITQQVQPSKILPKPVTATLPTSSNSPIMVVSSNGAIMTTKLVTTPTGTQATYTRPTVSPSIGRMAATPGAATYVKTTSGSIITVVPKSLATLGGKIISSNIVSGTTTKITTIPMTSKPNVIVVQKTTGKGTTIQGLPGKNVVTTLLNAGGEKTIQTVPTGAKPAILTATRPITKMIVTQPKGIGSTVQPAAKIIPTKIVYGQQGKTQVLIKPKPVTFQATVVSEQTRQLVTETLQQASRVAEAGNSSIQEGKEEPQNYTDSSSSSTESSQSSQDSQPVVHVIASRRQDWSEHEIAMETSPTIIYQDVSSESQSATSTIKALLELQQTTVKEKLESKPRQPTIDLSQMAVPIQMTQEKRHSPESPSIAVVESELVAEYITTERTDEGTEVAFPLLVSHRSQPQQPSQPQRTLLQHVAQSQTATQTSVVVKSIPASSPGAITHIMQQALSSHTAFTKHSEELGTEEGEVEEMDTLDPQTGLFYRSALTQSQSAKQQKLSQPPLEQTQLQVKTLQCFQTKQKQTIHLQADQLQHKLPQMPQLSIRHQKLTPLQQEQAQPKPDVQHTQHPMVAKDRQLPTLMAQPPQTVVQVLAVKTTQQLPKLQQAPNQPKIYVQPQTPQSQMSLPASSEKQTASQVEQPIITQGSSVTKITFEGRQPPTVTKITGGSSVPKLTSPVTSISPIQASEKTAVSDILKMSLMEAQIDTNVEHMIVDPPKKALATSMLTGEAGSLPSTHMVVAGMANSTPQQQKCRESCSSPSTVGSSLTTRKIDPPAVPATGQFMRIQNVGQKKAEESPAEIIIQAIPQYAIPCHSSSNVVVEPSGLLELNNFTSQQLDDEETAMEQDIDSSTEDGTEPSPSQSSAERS
B2: RAC-alpha serine/threonine-protein kinase (Homo sapiens), P31749 (parent)
chain: B1 chain
partner: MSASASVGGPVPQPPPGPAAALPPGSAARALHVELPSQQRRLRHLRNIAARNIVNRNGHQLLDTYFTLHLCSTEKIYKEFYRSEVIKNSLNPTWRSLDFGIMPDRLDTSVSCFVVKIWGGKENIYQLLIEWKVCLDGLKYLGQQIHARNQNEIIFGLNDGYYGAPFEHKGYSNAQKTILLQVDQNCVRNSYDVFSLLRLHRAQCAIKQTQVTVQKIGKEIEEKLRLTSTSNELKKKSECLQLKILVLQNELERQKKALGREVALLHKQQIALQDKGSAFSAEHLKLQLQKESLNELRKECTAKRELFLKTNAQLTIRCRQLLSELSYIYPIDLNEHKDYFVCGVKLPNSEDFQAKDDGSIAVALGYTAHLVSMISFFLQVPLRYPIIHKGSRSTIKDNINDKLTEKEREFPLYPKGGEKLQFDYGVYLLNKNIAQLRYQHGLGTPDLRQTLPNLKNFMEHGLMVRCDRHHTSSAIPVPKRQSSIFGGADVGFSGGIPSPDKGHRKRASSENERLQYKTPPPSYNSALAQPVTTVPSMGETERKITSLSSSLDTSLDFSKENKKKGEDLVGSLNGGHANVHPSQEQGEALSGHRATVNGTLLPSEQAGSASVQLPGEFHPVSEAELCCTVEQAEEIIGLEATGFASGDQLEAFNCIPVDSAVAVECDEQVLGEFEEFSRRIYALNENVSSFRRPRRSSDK
B3: RAC-alpha serine/threonine-protein kinase (Homo sapiens), P31749 (parent)
chain: B1 chain
partner: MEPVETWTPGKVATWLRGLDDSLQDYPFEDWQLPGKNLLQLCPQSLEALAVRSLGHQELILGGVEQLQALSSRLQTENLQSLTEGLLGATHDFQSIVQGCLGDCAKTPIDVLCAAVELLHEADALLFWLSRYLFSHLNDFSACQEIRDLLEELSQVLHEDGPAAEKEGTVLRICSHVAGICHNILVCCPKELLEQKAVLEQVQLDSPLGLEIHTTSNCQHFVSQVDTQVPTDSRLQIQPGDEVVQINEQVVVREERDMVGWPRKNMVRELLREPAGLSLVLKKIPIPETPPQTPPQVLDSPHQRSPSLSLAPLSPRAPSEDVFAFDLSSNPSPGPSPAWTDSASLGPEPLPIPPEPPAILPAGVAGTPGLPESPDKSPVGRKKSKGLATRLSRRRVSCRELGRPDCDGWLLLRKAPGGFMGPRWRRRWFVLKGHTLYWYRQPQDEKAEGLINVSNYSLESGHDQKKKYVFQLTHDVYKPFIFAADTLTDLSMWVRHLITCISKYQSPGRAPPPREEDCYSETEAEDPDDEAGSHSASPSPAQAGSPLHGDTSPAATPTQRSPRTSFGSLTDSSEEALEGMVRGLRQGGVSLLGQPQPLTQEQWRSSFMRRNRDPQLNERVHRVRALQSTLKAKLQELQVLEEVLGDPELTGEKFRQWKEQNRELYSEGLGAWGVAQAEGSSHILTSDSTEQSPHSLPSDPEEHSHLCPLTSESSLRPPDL
B4: RAC-alpha serine/threonine-protein kinase (Homo sapiens), P31749 (parent)
chain: B1 chain
partner: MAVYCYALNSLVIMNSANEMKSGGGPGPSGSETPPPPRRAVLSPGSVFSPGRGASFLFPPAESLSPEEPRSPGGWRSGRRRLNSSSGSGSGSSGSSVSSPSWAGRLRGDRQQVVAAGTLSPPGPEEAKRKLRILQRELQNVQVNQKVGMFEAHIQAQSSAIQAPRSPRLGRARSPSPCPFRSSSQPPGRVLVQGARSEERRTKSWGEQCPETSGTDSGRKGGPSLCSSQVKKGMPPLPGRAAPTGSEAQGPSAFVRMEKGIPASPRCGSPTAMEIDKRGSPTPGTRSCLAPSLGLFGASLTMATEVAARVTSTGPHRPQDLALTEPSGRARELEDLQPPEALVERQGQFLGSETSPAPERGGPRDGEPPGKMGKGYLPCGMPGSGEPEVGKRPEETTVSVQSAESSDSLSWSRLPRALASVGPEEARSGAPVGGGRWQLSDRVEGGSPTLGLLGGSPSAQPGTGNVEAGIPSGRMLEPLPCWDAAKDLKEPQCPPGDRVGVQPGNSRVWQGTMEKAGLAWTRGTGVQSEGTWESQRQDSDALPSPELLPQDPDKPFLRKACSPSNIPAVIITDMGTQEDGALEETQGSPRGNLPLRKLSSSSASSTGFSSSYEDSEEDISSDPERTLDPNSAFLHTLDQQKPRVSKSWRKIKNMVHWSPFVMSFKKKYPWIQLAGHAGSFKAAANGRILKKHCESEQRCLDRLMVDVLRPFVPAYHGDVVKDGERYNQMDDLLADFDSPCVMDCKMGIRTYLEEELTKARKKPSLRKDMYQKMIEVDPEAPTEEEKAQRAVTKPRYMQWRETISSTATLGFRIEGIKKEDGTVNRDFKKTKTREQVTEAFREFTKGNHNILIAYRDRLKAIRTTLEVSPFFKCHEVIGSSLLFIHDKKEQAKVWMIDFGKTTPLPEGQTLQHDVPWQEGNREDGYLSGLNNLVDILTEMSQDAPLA
B5: RAC-alpha serine/threonine-protein kinase (Homo sapiens), P31749 (parent)
chain: B1 chain
partner: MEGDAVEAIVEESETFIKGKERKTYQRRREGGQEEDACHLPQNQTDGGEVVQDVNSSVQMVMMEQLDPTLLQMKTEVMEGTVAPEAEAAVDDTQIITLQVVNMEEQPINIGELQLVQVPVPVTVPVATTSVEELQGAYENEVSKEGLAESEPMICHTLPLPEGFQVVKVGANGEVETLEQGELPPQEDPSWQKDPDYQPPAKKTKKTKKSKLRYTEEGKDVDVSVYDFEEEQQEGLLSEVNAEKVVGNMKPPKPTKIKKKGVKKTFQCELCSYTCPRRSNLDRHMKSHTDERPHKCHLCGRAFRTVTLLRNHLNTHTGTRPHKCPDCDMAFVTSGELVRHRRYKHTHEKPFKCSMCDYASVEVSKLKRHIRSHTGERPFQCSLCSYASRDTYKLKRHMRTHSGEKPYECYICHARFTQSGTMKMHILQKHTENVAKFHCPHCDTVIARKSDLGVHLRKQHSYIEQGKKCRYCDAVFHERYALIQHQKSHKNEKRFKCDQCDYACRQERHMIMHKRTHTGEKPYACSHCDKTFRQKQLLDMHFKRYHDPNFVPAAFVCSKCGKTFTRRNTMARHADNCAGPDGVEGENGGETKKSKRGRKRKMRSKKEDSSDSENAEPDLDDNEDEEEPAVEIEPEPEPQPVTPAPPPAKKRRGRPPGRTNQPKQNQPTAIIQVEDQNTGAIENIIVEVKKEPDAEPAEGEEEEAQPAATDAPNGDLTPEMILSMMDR

Variants of B1 are the subject of the first assay. To be noted: with emsy_human EMSY.
For E17K, the “effect of a mutation on the interaction” value is “with no effect”.

The variants in a further assay derive from B2. The conditions noted are these: with uvrag_human UVRAG.
Regarding E17K, the “effect of a mutation on the interaction” value is listed as “with no effect”.

The variants in a further assay derive from B3. The conditions noted are these: with cnkr1_human CNKSR1, Q969H4.
E17K: the “effect of a mutation on the interaction” value is “with no effect”.

Variants of B4 are the subject of a further assay. To be noted: with ip3kb_human ITPKB.
Turning to E17K, the “effect of a mutation on the interaction” value is given as “with no effect”.

The variants in another assay derive from B5. The conditions noted are these: with ctcf_human CTCF.
As to E17K, the “effect of a mutation on the interaction” value was “with no effect”.

Source of the values: IntAct's records for PubMed 35512704.
